Experimental data published in ChEMBL document CHEMBL1125563, “Selective, centrally acting serotonin 5-HT2 antagonists. 1. 2- and 6-substituted 1-phenyl-3-(4-piperidinyl)-1H-indoles” (J Med Chem, 1992).

Protein sequences, listed by entry. Tags and fused reporters are not part of them. Lines headed by an entry give the natural chain unless they say otherwise; changes in a name come on top.
UniProt P30994: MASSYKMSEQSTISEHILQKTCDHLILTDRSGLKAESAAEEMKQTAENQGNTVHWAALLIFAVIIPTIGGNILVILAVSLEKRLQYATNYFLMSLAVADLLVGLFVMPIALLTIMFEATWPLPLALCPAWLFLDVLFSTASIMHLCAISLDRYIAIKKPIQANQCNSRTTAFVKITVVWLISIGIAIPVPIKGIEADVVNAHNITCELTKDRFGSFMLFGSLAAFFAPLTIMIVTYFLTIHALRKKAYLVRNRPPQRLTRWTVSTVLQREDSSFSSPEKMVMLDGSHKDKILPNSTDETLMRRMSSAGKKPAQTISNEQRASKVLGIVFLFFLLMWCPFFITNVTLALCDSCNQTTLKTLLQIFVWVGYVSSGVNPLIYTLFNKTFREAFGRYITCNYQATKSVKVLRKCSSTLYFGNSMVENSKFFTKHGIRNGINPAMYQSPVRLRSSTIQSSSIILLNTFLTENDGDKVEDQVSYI
UniProt P08909: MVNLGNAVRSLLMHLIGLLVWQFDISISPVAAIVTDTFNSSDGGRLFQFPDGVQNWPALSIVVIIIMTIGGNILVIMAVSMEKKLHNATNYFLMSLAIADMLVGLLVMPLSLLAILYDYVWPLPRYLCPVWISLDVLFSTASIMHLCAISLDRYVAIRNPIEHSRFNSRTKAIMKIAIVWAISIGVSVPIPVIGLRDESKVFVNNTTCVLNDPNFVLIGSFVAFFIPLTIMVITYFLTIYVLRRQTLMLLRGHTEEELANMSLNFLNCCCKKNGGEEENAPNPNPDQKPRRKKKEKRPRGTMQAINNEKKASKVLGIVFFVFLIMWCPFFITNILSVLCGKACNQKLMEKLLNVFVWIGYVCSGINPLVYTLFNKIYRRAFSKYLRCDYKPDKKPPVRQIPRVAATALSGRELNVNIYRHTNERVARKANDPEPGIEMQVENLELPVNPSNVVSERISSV
UniProt P14842: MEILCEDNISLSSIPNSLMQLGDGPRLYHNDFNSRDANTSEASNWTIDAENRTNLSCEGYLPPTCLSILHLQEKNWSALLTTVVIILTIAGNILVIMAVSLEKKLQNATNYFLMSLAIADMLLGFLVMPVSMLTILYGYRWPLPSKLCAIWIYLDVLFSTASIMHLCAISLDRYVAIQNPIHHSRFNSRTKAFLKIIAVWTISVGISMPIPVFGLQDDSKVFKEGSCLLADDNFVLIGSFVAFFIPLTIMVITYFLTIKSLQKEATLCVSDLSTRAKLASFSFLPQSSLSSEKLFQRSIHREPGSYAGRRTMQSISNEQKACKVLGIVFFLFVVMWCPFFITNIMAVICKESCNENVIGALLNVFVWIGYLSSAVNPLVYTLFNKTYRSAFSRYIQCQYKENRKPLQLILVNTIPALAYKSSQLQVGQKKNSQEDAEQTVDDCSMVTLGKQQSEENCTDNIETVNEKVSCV

Molecular target: Serotonin 2 (5-HT2) receptor (Rattus norvegicus, UniProt P30994+P08909+P14842)
Test: Displacement of [3H]ketanserin from 5-hydroxytryptamine 2 receptor from rat cortical membranes.
Format: cell membranes, Membrane
In short: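 [3H]ketanserin displacement from rat cortical membranes (5-HT2). Five concentrations across three decades in triplicate, two full curves; IC50 estimated on a log-concentration scale, given as logarithmic mean of at least two determinations.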

IC50: 0.39 nM
Structure (SMILES): O=C1NCCN1CCN1CCC(c2cn(-c3ccc(F)cc3)c3ccc(Cl)cc23)CC1 [SERTINDOLE]
